Where a chain is given by its changes, count along the chain named.

To fix the notation:
T1: human IL-23 (Sino Biological, CT048-H08H) (human, UniProt Q9NPF7 20-189; P29460 23-328)
T1 construct: also called human IL-23 protein; Human IL-23 p19
T1 sequence (looked up) 1: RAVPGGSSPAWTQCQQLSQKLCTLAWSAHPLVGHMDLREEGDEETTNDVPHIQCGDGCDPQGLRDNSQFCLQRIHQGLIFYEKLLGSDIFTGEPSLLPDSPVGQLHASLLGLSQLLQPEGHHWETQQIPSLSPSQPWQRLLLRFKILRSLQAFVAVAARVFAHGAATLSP
T1 sequence (looked up) 2: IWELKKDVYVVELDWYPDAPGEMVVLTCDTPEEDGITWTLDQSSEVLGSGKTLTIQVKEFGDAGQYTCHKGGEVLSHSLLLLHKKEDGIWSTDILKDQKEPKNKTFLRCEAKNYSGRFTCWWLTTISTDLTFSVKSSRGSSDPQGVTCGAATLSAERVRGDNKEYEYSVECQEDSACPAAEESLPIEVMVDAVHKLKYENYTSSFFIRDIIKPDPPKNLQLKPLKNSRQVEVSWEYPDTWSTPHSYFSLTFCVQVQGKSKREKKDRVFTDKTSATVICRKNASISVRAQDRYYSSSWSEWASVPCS

T2: IL-23 (R&D Systems, 1290-IL-010) (UniProt Q9NPF7 20-189; P29460 23-328)
T2 sequence (looked up) 1: T1 sequence (looked up) 1
T2 sequence (looked up) 2: T1 sequence (looked up) 2

B1: Hu29-15 (antibody, human IgG1, kappa, L234A L235A)
heavy: not shown
light: DIVLTQSPDSLAVSLGERATINCRASESVDYYGISSMHWFQQKPGQPPKLLIYRASNLESGIPARFSGSGSRTDFTLTISSLQAEDVAVYYCQQANKDPYTFGGGTKVEIKRTVAAPSVFIFPPSDEQLKSGTASVVCLLNNFYPREAKVQWKVDNALQSGNSQESVTEQDSKDSTYSLSSTLTLSKADYEKHKVYACEVTHQGLSSPVTKSFNRGEC
notes: humanized mAb29, IgG1/kappa
B2: Hu29-10 (antibody, human IgG1, kappa, L234A L235A, V domains shown)
VH: EVTLKESGPVLVKPTETLTLTCTVSGFSLTSYAISWVRQPPGKALEWLGVIWTGGGTNYNSGIKSRLTISKDNSKSQVVLTMTNMDPVDTARYYCVREGDYGSYAGAMDYWGQGTTVTVSS
VL: DIVLTQSPDSLAVSLGERATINCRASESVDYYGISSMHWFQQKPGQPPKLLIYRASNLESGIPDRFSGSGSRTDFTLTISSLQAEDVAVYYCQQANKDPYTFGGGTKVEIKR
notes: humanized mAb29, IgG1/kappa
B3: Hu29-16 (antibody, human IgG1, kappa, L234A L235A)
heavy: not shown
light: B1 light with E17Q
notes: humanized mAb29, IgG1/kappa
B4: Hu29-23 (antibody, human IgG1, kappa, L234A L235A)
heavy: not shown
light: B1 light
notes: humanized mAb29, IgG1/kappa
B5: Hu29-1 (antibody, human IgG1, kappa, L234A L235A, V domains shown)
VH: B2 VH with T30S, V37I, N73T, R92T
VL: B2 VL with L4M, I62V
notes: humanized mAb29, IgG1/kappa
B6: Hu29-9 (antibody, human IgG1, kappa, L234A L235A, V domains shown)
VH: B2 VH
VL: B2 VL with L4M, I62V
notes: humanized mAb29, IgG1/kappa
B7: Hu29-5 (antibody, human IgG1, kappa, L234A L235A, V domains shown)
VH: B2 VH with V37I, R92T
VL: B2 VL with L4M, I62V
notes: humanized mAb29, IgG1/kappa
B8: Hu29-6 (antibody, human IgG1, kappa, L234A L235A, V domains shown)
VH: B2 VH with V37I, R92T
VL: B2 VL
notes: humanized mAb29, IgG1/kappa
B9: Hu29-2 (antibody, human IgG1, kappa, L234A L235A, V domains shown)
VH: B2 VH with T30S, V37I, N73T, R92T
VL: B2 VL
notes: humanized mAb29, IgG1/kappa

In the first experiment the target is T1, human IL-23 (Sino Biological, …). The experiment can be described thus: ELISA, sample coated, IL-23 titrated, anti-His-HRP. On the procedure:
The binding activity of the test molecules for IL-23 p19 and BAFF was measured by Elisa (coating the test molecules). The specific procedures are as follows:
The test sample was diluted to 2 μg/mL with a PBS (BasalMedia, B320) buffer at pH 7.4 and added to a 96-well microplate (Coming, 3590) at 100 μL/well. The plate was incubated at 4° C. overnight. After the liquid was discarded, 5 % skim milk (BD, 232100) diluted with PBS was added at 300 μL/well for blocking, and the mixture was incubated at 37° C. for 2 h. After the blocking was completed, the blocking solution was discarded, and the plate was washed 3 times with a PBST buffer (pH 7.4, PBS containing 0.1 % tween-20). The IL-23 (Sino Biological, CT048-H08 H) or BAFF (ACROBiosystems, BAF-H52 D4) solution diluted in a gradient was added at 100 pt/well, and the mixture was incubated at 37° C. for 1 h. After the incubation, the plate was washed 3 times with PBST. When the binding to IL-23 and BAFF was to be detected, Anti-His-HRP (Sino biological, 105327-MM02 T-H, diluted at 1:2000) was added at 100 μL/well, and the mixture was incubated at 37° C. for 1 h. […] The absorbance values at 450 nm were taken using a microplate reader. The binding curves of antibodies to antigens were fitted using software, and the EC₅₀ values were calculated.
For the molecule B1, the EC50 – broadly, the concentration giving half of the maximal effect – came to 1.19 nM.

In a further experiment the target is T2, IL-23 (R&D Systems, 1290-IL-010). The experiment can be described thus: cell-based or functional assay.
B1: the “IC50 for inhibiting IL-17 secretion” value is 0.0195 nM.

The target of a further experiment is T1, human IL-23 (Sino Biological, …). The experiment can be described thus: SPR (Biacore), Protein A capture of sample, 1:1 model. As to the method: A certain amount of test sample was subjected to affinity capture by a biosensor chip Protein A (GE, 29127556), and then antigens at a series of concentration gradients were allowed to flow on the surface of the chip. The reaction signals were detected in real time by using Biacore (GE, 8 K) to obtain association and dissociation curves. After the dissociation was completed for each cycle, the biochip was washed and regenerated with a 10 mM glycine-hydrochloric acid solution at pH 1.5 (GE, BR-1003-54). Fitting was performed based on the experimental data using BlAevaluation version 4.1 software with a 1:1 model, and affinity values were obtained. The relevant antigen proteins used in this assay are as follows: human IL-23 (Sino biological, CT048-H08 H), human BAFF (Sino biological, 10056-FINCH), human APRIL (R&D Systems, 5860-AP-010/ CF), cynomolgus monkey IL-23 (Acro Biosystems, ILB-CM52 W8), cynomolgus monkey BAFF (Kactus, BAF-CM412), cynomolgus monkey APRIL (Kactus, APR-CM410 B), mouse IL-23 (R&D Systems, 1887-ML/CF), mouse BAFF (Acro Biosystems, BAF-M521 y), and mouse APRIL (R&D Systems, 7907-AP/CF).
(In general: In SPR one partner is held on a chip, and binding of the other changes the refractive index at the surface.)
With B2, the Kd (usually the free concentration of one partner at which half of the binding sites on the other are occupied at equilibrium, for simple one-to-one binding) was 0.0239 nM; the koff – broadly, the rate constant with which the complex falls apart – was 8.7e-05 s⁻¹; the kon (commonly the rate constant with which the complex forms) worked out at 3.65e+06 M⁻¹ s⁻¹.

B3 had a Kd of 0.0183 nM, an off-rate constant (koff) of 7.99e-05 s⁻¹ and a kon of 4.36e+06 M⁻¹ s⁻¹.

B4 showed a dissociation constant (Kd) of 0.0226 nM, a koff of 8.57e-05 s⁻¹ and an on-rate constant (kon) of 3.79e+06 M⁻¹ s⁻¹.

Molecule B5 came in with a Kd of 0.0393 nM, an off-rate (koff) of 0.000133 s⁻¹ and an on-rate constant (kon) of 3.39e+06 M⁻¹ s⁻¹.

In the case of B6, binding was characterised by a dissociation constant (Kd) of 0.0304 nM, the koff is 0.000106 s⁻¹ and the on-rate constant (kon) turned out to be 3.48e+06 M⁻¹ s⁻¹.

B1 registered a Kd of 0.0223 nM, a dissociation rate constant (koff) of 7.02e-05 s⁻¹ and a kon of 3.15e+06 M⁻¹ s⁻¹.

In turn, B7 registered a Kd of 0.0367 nM, an off-rate constant (koff) of 0.000125 s⁻¹ and a kon of 3.4e+06 M⁻¹ s⁻¹.

In the case of B8, binding was characterised by a dissociation constant (Kd) of 0.0255 nM, the koff came out at 9.85e-05 s⁻¹ and the kon was 3.86e+06 M⁻¹ s⁻¹.

B9 had a Kd of 0.0308 nM, a koff of 0.000108 s⁻¹ and a kon of 3.51e+06 M⁻¹ s⁻¹.

Another experiment shares this target. The experiment can be described thus: competition ELISA, blocks IL-23/IL-23R; IL-23R coated, biotin-IL-23 + sample gradient. On the procedure: The blocking activity of the anti-IL23 antibodies and the fusion proteins thereof for receptors and ligands of IL-23/ IL-23R, BAFF/BAFF-R, BAFF/BCMA, BAFF/TACI, APRIL/BCMA, APRIL/TACI and the like was detected by Elisa. The specific procedures are as follows:
The receptor protein was diluted to 2 μg/mL with a PBS (BasalMedia, B320) buffer at pH 7.4 and added to a 96-well microplate (Corning, 3590) at 100 μL/well. The plate was incubated at 4° C. overnight. After the liquid was discarded, 1 % Casein blocking solution (Thermo, 37528) was added at 200 μL/well for blocking, and the plate was incubated at 37° C. for 2 h. After the blocking was complete, the blocking solution was discarded, and the plate was washed 3 times with a PBST buffer (pH 7.4 PBS containing 0.1 % tween-20) for later use. After the biotin-labeled ligand protein at a fixed concentration was mixed with an antibody or fusion protein diluted in a gradient, the mixture was pre-incubated at 37° C. for 30 min and then added to the blocked microplate. The plate was incubated at 37° C. for 1.5 h. After the incubation was complete, the plate was washed 3 times with PBST. Streptavidin-HRP (Invitrogen, 434323, diluted at 1:4000) was added at 100 μL/well, and the plate was incubated at 37° C. for 1 h. The supernatant was removed. After the plate was washed 3 times with PBST, TMB chromogenic substrate (KPL, 5120-0077) was added at 100 μL/well, and the plate was incubated at room temperature for 10⁻¹⁵ min. 1 M H₂SO₄ was added at 50 μL/well to terminate the reaction. The absorbance values at 450 nm were taken using a microplate reader. Curves for the inhibition of binding of the ligands to the receptors were fitted using software, and the IC₅₀ values were calculated. The source information of the ligand proteins used in this test example is as follows: IL-23 (Sino Biological, CT048-H08 H), BAFF (Sino Biological, 10056-HNCH), APRIL (R&D Systems, 5860-AP-010/ CF).
On to B2, for which the IC50 (in general, the point on the concentration scale where inhibition reaches its midpoint) came out at 0.424 nM.

B5: the IC50 was 0.474 nM.

As for B6, the half-inhibitory concentration (IC50) came to 0.397 nM.

B1: the 50% inhibitory concentration (IC50) worked out at 0.41 nM.

On to B7, for which the IC50 was 0.388 nM.

B8: the IC50 is 0.437 nM.

In the case of B9, the half-maximal inhibitory concentration (IC50) was found to be 0.397 nM.

The target is the same in another experiment. In words: cell-based or functional assay.
On to B2, for which the “Activity in inhibiting proliferation of BaF3-IL-23R cells (IC50, nM)” value (shortened to “Activity in inhibiting proliferation”) is 0.086 nM.

Turning to B3, the “Activity in inhibiting proliferation” value worked out at 0.225 nM.

B4: the “Activity in inhibiting proliferation” value was 0.118 nM.

With B5, the “Activity in inhibiting proliferation” value was found to be 0.0711 nM.

With B6, the “Activity in inhibiting proliferation” value amounted to 0.0561 nM.

Turning to B1, the “Activity in inhibiting proliferation” value was found to be 0.216 nM.

With B7, the “Activity in inhibiting proliferation” value was found to be 0.0553 nM.

With B8, the “Activity in inhibiting proliferation” value turned out to be 0.089 nM.

Turning to B9, the “Activity in inhibiting proliferation” value came to 0.0623 nM.

The values above are taken from patent publication US20240400670A1 (JIANGSU HENGRUI PHARMACEUTICALS, published 2024).
